In patent US6936723B2, “Synthetic salicylihalamides, apicularens and derivatives thereof” (Board of Regents, The University of Texas System, priority 2000, dated 2005):

Legend:
[1] = tested on: human melanoma cell line SK-MEL-5; experiment: Growth inhibition of the SK-MEL-5 human melanoma cell line (MTT assay); conditions: growth determined 2 days after addition by MTT assay, triplicate assays at 4 concentrations
[2] = target: purified reconstituted V-ATPase from bovine brain (Bos taurus, UniProt P23956+P61420+Q29466+Q2TA24); experiment: Inhibition of purified reconstituted V-ATPase (proton pumping); type: biochemical

Row | Compound | GI50 [1] [nM] | IC50 [2] [nM]
1 | CCCCCOC(=O)N/C=C/CC1C[C@@H](OC(=O)c2ccccc2)[C@@H](C)C/C=C/Cc2cccc(O)c2C(=O)O1 (stereo partly shown) | > 20000 | 180
2 | CC/C=C/C=C\C(=O)N(/C=C/C[C@H]1C[C@@H](O)[C@@H](C)C/C=C/Cc2cccc(O)c2C(=O)O1)C(=O)N/C=C/C[C@H]1C[C@@H](O)[C@@H](C)C/C=C/Cc2cccc(O)c2C(=O)O1 | 100 | 1.2
